# Assay results taken from PubChem BioAssay AID2676 (National Center for Advancing Translational Sciences (NCATS), 2010).
# The chains behind the UniProt entries cited, without tags or fusion partners. Where a name states a change or a piece, a line headed by the entry shows the natural chain unless it says otherwise.
# UniProt Q9HBX9: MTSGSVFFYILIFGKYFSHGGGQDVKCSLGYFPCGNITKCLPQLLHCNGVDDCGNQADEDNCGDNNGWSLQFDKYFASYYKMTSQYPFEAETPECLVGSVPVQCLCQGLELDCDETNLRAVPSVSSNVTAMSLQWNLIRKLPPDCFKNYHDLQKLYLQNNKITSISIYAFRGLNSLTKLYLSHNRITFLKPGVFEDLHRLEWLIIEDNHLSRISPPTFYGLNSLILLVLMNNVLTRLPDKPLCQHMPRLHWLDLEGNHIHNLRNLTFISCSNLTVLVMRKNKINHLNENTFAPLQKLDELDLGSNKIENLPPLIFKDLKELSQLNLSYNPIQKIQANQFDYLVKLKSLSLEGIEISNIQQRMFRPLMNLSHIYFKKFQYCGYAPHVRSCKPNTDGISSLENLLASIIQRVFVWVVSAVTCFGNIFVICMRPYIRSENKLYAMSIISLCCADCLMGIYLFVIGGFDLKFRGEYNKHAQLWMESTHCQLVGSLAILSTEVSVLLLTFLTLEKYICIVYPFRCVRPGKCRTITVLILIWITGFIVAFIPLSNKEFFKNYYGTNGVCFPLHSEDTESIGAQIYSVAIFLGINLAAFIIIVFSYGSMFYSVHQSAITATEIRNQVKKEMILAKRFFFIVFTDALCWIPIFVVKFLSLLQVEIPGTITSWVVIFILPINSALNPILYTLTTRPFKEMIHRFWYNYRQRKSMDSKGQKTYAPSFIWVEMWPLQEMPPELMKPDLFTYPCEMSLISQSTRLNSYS
# Among all 370,000 compounds or so, about 1,100 (0.3%) were called active. Only results without a clear call are listed here; the source files them as inconclusive. Calls follow the shape of the dose curve; as a rule, active = well fitted activation curve with a large enough effect; inconclusive = small, poorly fitted or top-dose-only effect; inactive = flat fitted curve, though single readings scatter.
# Molecular target: Relaxin receptor 1 (Homo sapiens) (UniProt Q9HBX9)
# Assay: qHTS Assay for Agonists of the Relaxin Receptor RXFP1; also: nearly all actives have a fitted effect of over 60% in size
# Conditions: HEK293T-RXFP1 cAMP TR-FRET, 30 min
# Source text: NIH Chemical Genomics Center [NCGC] NIH Molecular Libraries Probe Production Centers Network [MLPCN] MLPCN Grant: R03 MH085705-01A1 Assay Submitter (PI): Alexander Agoulnik NCGC Assay Overview: The relaxin hormone is involved in the variety of biological functions in normal tissues and diseases. The role of relaxin is well-established in female reproduction and parturition, mammary gland and endometrial development, maintenance of myometrial quiescence during pregnancy. Relaxin signaling through its G protein-coupled receptor (GPCR) RXFP1 results in ECM remodeling through regulation of collagen deposition, cell invasiveness, proliferation and overall tissue homeostasis. […] RXFP1 activation was assayed by changes in cAMP levels as detected with a time-resolved fluorescence energy transfer (TR-FRET) cAMP detection kit.
# NCGC Assay Protocol Summary: This is a cell-based assay for cAMP second messenger response to screen for agonists of the RXFP1 receptor. […] The cells were lysed and the cAMP levels were measured with a TR-FRET cAMP kit. […] The EC50 values were determined from concentration-response data modeled with the standard Hill equation 1536-well assay protocol for the HEK293 RXFP1 cAMP assay: (1) Add 3 ul HEK293 RXFP1 cell culture. […] (6) Detect the assay plate in a ViewLux plate reader (PerkinElmer) with Ex=320 nm, Em1=615 nm and Em2=665 nm. […]
# Potency is read from the fitted curve at half-maximal effect.
row,SMILES,Potency
1,O=C(OC1CN2CCC1CC2)c1cccc(Cl)c1 (stereo unspecified),inconclusive: 7.08 µM
